Structures are written as SMILES.

The chains behind the UniProt entries cited, without tags or fusion partners.
UniProt P42336, whole entry: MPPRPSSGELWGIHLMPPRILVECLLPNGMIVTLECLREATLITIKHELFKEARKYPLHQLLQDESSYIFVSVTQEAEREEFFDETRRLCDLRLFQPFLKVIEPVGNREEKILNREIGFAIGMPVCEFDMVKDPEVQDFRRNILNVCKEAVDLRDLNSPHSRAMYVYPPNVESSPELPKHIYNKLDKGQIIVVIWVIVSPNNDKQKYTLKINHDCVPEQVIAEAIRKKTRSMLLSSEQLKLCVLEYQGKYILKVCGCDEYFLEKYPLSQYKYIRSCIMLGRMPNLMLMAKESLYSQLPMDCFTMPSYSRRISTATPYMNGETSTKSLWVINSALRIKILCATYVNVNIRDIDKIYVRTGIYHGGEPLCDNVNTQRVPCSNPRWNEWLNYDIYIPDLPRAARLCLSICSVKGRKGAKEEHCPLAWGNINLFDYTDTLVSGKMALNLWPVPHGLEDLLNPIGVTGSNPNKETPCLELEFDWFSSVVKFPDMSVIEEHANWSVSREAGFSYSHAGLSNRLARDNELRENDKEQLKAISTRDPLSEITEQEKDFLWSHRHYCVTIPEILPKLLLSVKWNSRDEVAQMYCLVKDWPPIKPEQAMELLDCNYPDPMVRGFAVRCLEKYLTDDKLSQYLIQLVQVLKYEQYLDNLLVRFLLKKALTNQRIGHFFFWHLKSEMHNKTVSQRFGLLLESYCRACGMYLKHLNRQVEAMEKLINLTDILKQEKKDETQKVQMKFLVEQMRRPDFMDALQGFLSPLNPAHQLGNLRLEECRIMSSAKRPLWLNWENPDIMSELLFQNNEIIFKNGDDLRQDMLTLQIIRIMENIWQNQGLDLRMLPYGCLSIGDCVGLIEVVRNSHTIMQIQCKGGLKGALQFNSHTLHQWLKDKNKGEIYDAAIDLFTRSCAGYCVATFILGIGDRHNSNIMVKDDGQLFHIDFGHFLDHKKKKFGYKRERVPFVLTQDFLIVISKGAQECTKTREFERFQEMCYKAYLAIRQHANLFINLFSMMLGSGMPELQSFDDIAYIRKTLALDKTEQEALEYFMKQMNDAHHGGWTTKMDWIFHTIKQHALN
UniProt P28482, whole entry: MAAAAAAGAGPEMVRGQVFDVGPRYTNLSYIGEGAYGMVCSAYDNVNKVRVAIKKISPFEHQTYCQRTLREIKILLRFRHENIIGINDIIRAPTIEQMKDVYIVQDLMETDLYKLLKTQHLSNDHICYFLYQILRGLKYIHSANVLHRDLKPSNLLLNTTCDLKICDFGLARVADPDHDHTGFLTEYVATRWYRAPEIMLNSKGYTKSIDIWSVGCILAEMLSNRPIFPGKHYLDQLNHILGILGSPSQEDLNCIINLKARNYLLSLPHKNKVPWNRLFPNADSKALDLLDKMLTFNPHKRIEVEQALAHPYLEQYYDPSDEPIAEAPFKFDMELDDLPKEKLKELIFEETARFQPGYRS
UniProt P27986, whole entry partner: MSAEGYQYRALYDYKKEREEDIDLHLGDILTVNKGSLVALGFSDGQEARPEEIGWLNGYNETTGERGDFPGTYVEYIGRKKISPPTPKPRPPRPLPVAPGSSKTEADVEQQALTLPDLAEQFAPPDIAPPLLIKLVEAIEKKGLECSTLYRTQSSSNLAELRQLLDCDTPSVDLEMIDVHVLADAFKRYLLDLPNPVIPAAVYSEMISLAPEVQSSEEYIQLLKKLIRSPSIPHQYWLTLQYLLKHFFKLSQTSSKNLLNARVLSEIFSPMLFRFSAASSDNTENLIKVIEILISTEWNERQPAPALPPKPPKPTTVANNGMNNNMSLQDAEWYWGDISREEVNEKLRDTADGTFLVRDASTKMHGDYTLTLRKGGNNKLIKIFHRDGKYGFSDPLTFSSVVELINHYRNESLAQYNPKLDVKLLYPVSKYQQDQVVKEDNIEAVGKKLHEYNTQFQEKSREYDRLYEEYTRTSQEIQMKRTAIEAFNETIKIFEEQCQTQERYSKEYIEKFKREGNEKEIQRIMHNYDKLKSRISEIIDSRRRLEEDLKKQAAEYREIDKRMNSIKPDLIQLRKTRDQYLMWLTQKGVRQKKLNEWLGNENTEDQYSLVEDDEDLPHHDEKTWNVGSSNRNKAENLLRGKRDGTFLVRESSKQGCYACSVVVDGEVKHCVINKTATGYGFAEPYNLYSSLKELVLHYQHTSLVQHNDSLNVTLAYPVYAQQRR

Experimental findings from patent publication US9783536B2, “Nitrogen-containing heterocyclic compound or salt thereof” (FUJIFILM Corporation, priority 2013, dated 2017) are described below.

One assay has as its target human PI3Kα protein (Homo sapiens, UniProt P42336). The assay can be described thus: PI3Kα enzyme assay (ADP-Glo). Particulars: read-out: PI3Kα enzyme inhibitory activity. Here is the method: In a PI3Kα enzyme assay, a product (manufactured by Carna Biosciences, Inc.) obtained by biotinylating a human PI3Kα protein produced by using a baculovirus expression system was used. In addition, in the detection of enzyme activity, ADP-GLO KINASE ASSAY (trade name, manufactured by PROMEGA Corporation) was used.
10 μL of a reaction liquid (4.5 nmol/L PI3Kα, 40 mmol/L Tris-HCl, 20 mmol/L MgCl2, 0.1% BSA, pH 7.5) including the human PI3Kα protein and a test compound having a predetermined concentration was allowed to stand at room temperature for 15 minutes. Then, 5 μL of a mixture liquid of L-α-phosphatidylinositol 4,5-diphosphate (PIP2) (manufactured by Sigma-Aldrich Co. LLC.) and ATP (manufactured by Sigma-Aldrich Co. LLC.), which are substrates, was added thereto such that final concentrations thereof became 50 μmol/L and 100 μmol/L, respectively, and an enzyme reaction was performed by allowing to stand at 25° C. for 60 minutes.
After the reaction, the enzyme reaction was stopped by adding 15 μL of an ADP-GLO REAGENT (trade name, manufactured by PROMEGA Corporation) thereto and allowing to stand at room temperature for 60 minutes. Then, 30 μL of a KINASE DETECTION REAGENT (trade name, manufactured by PROMEGA Corporation) was added thereto, followed by allowing to stand at room temperature for 40 minutes, and ADP produced by the enzyme reaction was quantified by emission intensity.
ENVISION (trade name, manufactured by Perkin Elmer Inc.) was used for the measurement of the emission intensity.
(§1) The inhibitory activities of the compounds were evaluated using IC50 (50% inhibitory concentration). The IC50 was calculated using XLFIT (trade name, manufactured by ID Business Solutions).
A general note: ADP-Glo first removes unused ATP, then detects ADP through luciferase.

Assay [1] addresses GST fusion human ERK2 protein (Homo sapiens, UniProt P28482). The assay can be described thus: ERK2 enzyme assay (2). The following applies: read-out: ERK2 enzyme inhibitory activity (2). As for the experimental part:
In an ERK2 enzyme assay, GLUTATHIONE S-TRANSFERASE (GST) FUSION HUMAN ERK2 PROTEIN (manufactured by Carna Biosciences, Inc.), which was produced by using an E. coli expression system, was used.
12 μL of a reaction liquid (1.25 nmol/L ERK2, 100 mmol/L Hepes, 10 mmol/L MgCl2, 1.5 mmol/L DTT, 0.003% Brij35, pH 7.5) including ERK2 protein and a test compound having a predetermined concentration was allowed to stand at room temperature for 15 minutes. Then, 3 μL of a mixture liquid of FL-PEPTIDE8 (5-FAM-IPTSPITTTYFFFKKK-COOH) (manufactured by Caliper Life Sciences), which is substrate peptide, and ATP (manufactured by Sigma-Aldrich Co. LLC.) was added thereto such that the final concentrations thereof became 4.25 μmol/L and 1 mmol/L, respectively, and an enzyme reaction was performed by allowing to stand at 25° C. for 120 minutes.
After the reaction, the enzyme reaction was stopped by adding 30 μL of a reaction stopper liquid (100 mmol/L HEPES, 11.2 mmol/L EDTA, 5.6% Brij35, pH 7.5) including a 0.5% COATING REAGENT 8 (trade name, manufactured by Perkin Elmer Inc.) thereto. Then, phosphorylated peptide and non-phosphorylated peptide were separated using LABCHIP EZ READER (trade name, manufactured by Caliper Life Sciences), and the porportion of the phosphorylated peptide was quantified.
as §1

On to `CC(C)c1cnnc(Nc2ccc3ncc(-c4cn(C)nc4NC4CN(C(=O)OC(C)(C)C)C4)cc3n2)c1`, for which the IC50 (on human PI3Kα protein; in assay [1]) was < 1000 nM in each case.
Regarding `CC(C)c1cnnc(Nc2ccc3ncc(-c4cn(C)nc4COc4ccncc4)cc3n2)c1`, the IC50 on human PI3Kα protein is 1000 to 10000 nM; in assay [1], < 1000 nM.
The like results for `CC(C)c1cnnc(Nc2ccc3ncc(-c4cn(C)nc4COc4ccccn4)cc3n2)c1` were, in that order, < 1000 nM and < 1000 nM.
